Biological target: T1, human-type OT7T022 (Homo sapiens, UniProt Q9GZQ6)
T1 construct: expressed in transfected cells; host or cells: CHO cells (membrane fraction)
Assay: Binding inhibiting activity using human-type OT7T022-expressing CHO cell (125I-Y-RFRP-3)
Conditions: compared with endogenous human-type RFRP-3 (hRFRP-3-28)
Experimental: Assessment of Binding Inhibiting Activity of Test Compound Using Human-Type OT7T022-Expressing CHO Cell
(1) Preparation of Iodine-Labeled Entity of Human-Type RFRP-3 (Y-RFRP-3)
A part thereof was 1/100 diluted, radioactivity was measured with a γ-counter, and the remaining authentic product was distributed, which was stored at −30° C.
(2) Assessment of Binding Inhibiting Activity
To a 96-well microplate were added 1 μg of a membrane fraction, a compound and Y-RFRP-3 labeled with ^125I, which had been diluted with a reaction buffer (50 mM Tris-HCl, 5 mM EDTA, 0.1% BSA, 0.5 mM PMSF, 20 μg/ml leupeptin, 0.1 μg/ml pepstatin A, 4 μg/ml E-64, 10 mM MgCl2, pH 7.5), to 100 pM to react them at room temperature for 1.5 hours. For measuring non-specific binding, non-labeled Y-RFRP-3 was further added to […]. Then, a membrane fraction was transferred to a unifilter GF/C (Perkin Elmer) by filtering the reaction solution using a cell harvester (Perkin Elmer), and this was washed with a cooled 50 mM Tris buffer (pH 7.5) five times. The filter was dried, Microsinti (Packard) was added to the filter, and radioactivity was measured with Topcount (Packard).
A binding inhibiting rate (IC50 value) of a test compound is shown in [Table 1].

Protein sequences, listed by entry. Tags and fused reporters are not part of them. Lines headed by an entry give the natural chain unless they say otherwise; changes in a name come on top.
UniProt Q9GZQ6: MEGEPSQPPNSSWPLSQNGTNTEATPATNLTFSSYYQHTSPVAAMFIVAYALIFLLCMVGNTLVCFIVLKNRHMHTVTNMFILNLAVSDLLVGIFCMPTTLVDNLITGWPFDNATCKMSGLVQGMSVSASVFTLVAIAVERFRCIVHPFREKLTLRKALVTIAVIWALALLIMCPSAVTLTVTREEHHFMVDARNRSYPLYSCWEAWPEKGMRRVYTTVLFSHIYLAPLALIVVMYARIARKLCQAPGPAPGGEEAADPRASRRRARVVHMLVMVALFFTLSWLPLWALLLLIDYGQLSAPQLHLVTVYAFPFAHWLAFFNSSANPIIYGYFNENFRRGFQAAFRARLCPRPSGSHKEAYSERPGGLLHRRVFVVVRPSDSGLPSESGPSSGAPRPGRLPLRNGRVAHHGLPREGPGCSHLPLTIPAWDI

Q: How did the “binding inhibiting activity for human-type OT7T022-expressing CHO cell” value turn out when “Val-Pro-Asn-Leu-Pro-Gln-Arg-Phe-amide [hRFRP-3-8, reference compound]” was run?
A: Its value is “equivalent to that of endogenous human-type RFRP-3 (hRFRP-3-28)”.

Source: US20070117840A1, “Receptor antagonist” (priority 2004, published 2007)
